This passage reports inhibition results from PubChem BioAssay AID588335 (The Scripps Research Institute Molecular Screening Center, 2011).

The entries are a selection whose mix differs from that of the whole data set. Active and inactive are the calls of the source. Rule as the data show it: active = inhibition above about 30%; inactive = the rest.

The assay can be described thus: inhibition of GDH and TPI enzymes – biochemical, absorbance, full deck, artefact control for M. tuberculosis FBA inhibitor project, primary screen (AID 588335).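 Also: 0% = DMSO wells and 100% = wells lacking the enzyme.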 The settings on record: GDH-TPI coupled enzyme counterscreen, NADH absorbance; at 4.8 µM; stronger effect = higher value. A general note: A counterscreen serves to expose hits that act by an unwanted route or on another target.
For the molecule `CCC(=O)N(c1ccccc1)C1(COC)CCN(CCc2cccs2)CC1`, the inhibition is inactive: 14.6%. Consider `CCC(=O)N(c1ccccc1)C1(COC)CCN(CCn2nnn(CC)c2=O)CC1`, for which the inhibition is inactive: -13.6%.

The term inhibition denotes the change of the read-out against control, counted positive when it falls.
